This experiment relates to PC-3 tumor. In words: Immunohistochemistry of xenografted PC-3 tumors (Ki-67, cleaved Caspase-3). The note with it: tumors 8 weeks after xenografting; 10.0 mg/kg i.p. bi-weekly. The class given is in vivo, Balb C nu/nu mice.

B1: 13F6: non-inhibitory monoclonal anti-uPAR antibody raised against GFDuPAR-hFc; IgG1 κ (antibody, V domains shown)
VH: ELVKPGASVELSCKASGYTFTSYWMNWVKQRPGRGLEWIGRIAPNSGGTQYSGKFKTKATLTVDKSSSTAYMQLSSLTSEDSAVYYCARGDYFGHFDYWGQGTTLTVS
VL: SLSASLGGKVTITCKASQDINNYIAWYQHKPGKGPRLLIHYTSILQPGIPSRFSGSGSGRDYSFSISNLEPEDIATYYCLQCDNLLTFGAGTKLELK
As for B1, the “number of cells undergoing apoptosis (cleaved Caspase-3 reactivity)” value is “did not cause any significant changes” and the “number of proliferating cells (Ki-67 positivity)” value was “did not cause any significant changes”.

Values taken from US20140161803A1, “CONSTITUTIVELY ACTIVE UPAR VARIANTS AND THEIR USE FOR THE GENERATION AND ISOLATION OF INHIBITORY ANTIBODIES” (IFOM Fondazione Istituo FIRC di Oncologia Molecolare, priority 2011, published 2014).
